Experimental data published in patent US6531485B2, “Prostaglandin agonists” (priority 1997, dated 2003).

The chains behind the UniProt entries cited, without tags or fusion partners. Where a name states a change or a piece, a line headed by the entry shows the natural chain unless it says otherwise.
UniProt P43116: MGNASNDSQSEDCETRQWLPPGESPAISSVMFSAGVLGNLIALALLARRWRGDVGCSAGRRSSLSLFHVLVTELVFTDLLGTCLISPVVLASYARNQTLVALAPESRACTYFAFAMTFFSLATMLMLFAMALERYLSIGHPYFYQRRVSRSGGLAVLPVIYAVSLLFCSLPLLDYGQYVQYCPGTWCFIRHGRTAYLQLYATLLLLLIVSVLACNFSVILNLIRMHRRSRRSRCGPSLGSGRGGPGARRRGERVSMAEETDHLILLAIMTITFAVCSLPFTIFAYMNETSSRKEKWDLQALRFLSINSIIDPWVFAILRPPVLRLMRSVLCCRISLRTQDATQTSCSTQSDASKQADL

Target: T1, human EP2 receptors (Homo sapiens, UniProt P43116)
T1 construct: cDNAs representing the complete open reading frames of the human EP2 and EP2 receptors; expressed in transfected cells
Experiment: Scatchard analysis of specific [3H]PGE2 binding in 293-S transfectants (EP2 line)
Settings: read-out: Kd for PGE2 (EP2), 293-S line stably overexpressing recombinant human EP2, selected for compound screening

Compound: CCCCC[C@H](O)/C=C/[C@H]1[C@H](O)CC(=O)[C@@H]1C/C=C\CCCC(=O)O [PGE2, Prostaglandin E2]
- Kd: 12 nM
